## Yeast mating assay B: variants of the scFv Ab-14

Values reported by Li et al. 2023, doi:10.1038/s41467-023-39022-2 (FLAb copy).

The target is the same throughout: PDVDLGDISGINAS, from the HR2 region of SARS-CoV-2 spike.

Parent: Ab-14, a human scFv built as VH, three GGGGS repeats, VL. Only the CDRs of the light chain vary.
VH: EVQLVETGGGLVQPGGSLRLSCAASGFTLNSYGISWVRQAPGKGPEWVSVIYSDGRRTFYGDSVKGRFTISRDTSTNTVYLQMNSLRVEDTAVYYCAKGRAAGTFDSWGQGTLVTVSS
VL: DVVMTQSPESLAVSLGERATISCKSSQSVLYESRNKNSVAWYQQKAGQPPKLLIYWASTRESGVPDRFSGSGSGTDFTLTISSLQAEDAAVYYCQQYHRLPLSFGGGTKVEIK

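The parent was found by panning a naive human phage display library on the peptide. Designed CDR sequences, proposed from the first random library and measured here. Group labels follow the data file (En: ensemble of fine-tuned language models; GP: Gaussian process model; HC: hill climbing; Gen: genetic algorithm; Gibbs: Gibbs sampling; a sequence that several methods proposed may carry one label only). Affinity was read by AlphaSeq, a pooled yeast mating assay with surface-displayed partners. Mating (16 h, 30 °C) was followed by selection of diploids and sequencing of their barcodes. Each replicate has its own calibration line, from reference interactions of the BCL2 family. The assay was run in six technical replicates.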

Each variant is given by its three light chain CDRs, as the data file delimits them; those of the parent are KSSQSVLYESRNKNSVA, WASTRES, QQYHRLPLS.
This list holds designs with more than six substitutions.
The Kd shown is the geometric mean over detected replicates; a lower Kd is a better binder.
An entry "nd" has no value in the source: the pair was not observed among the diploids in any replicate. This suggests poor binding but is not conclusive.

The variant NIVGRVEDNQTENNAIA / DMHCRAG / QQYSRLPLS [En_Gibbs] showed 10 nM (6 of 6 replicates). The variant KVSPSWEYEDRNKNSVA / QASQRCS / QQYHRLPLS [GP_Gibbs] gave 400 pM (6 of 6 replicates). The variant KLGGMTAIESRNLNSVA / QMDTRES / QQYDRLPLS [En_HC] gave 8.1 nM (6 of 6 replicates). The variant KIQQTHVGNEKKMEAIA / QGDQRCQ / QSYDRLPLS [En_Gibbs] gave 1.6 nM (6 of 6 replicates). The variant KIGHQMVGNWKTHNNIA / QGDTRGS / QSYDRLPLS [En_Gibbs] showed 16 nM (6 of 6 replicates). The variant NISESMYFQSRMKNNIA / EMSTREK / QHYHRLPLS [En_HC] gave 4.4 nM (3 of 6 replicates). The variant RLSLEHTGYWEMMNNIA / QGSTKQF / QQYDRLPLH [En_Gibbs] gave 50 nM (6 of 6 replicates). For IVSQLMLWGMHAKNSIA / EAELRLN / QQYDRLPLF [En_Gen], the assay gave nd (0 of 6 replicates).

The variant MLSQMWGVGNKVSNSVA / QASTRFN / QQYDRLPLI [En_Gen] gave 9.7 nM (6 of 6 replicates). For KVVKAKSEGDYHAANVA / NANKASD / QQYYRLPLA [En_Gibbs], the assay gave 4.3 nM (6 of 6 replicates). The variant ALSQAMDMTSRNVNSVA / DLTTREN / QQYHRLPLS [En_HC] showed 4.9 nM (6 of 6 replicates). The variant RFTEHLLMLENKIYNIA / NATKTME / QQYFRLPFV [En_Gibbs] showed 2.2 nM (6 of 6 replicates). The variant KIYHGVTGTSRKGNSVA / QAETRLD / QQYFRLPLM [En_HC] gave nd (0 of 6 replicates). The variant KVSPSWLGEMRNDNSVA / NASTRRS / QQYHRLPLS [GP_Gibbs] showed 8.1 nM (6 of 6 replicates). With KSSGSVMGEDWNKNSVA / QASKRES / QQYHRLPLS [GP_Gibbs] the result was 1.8 nM (6 of 6 replicates). For KLSATYRFESQNKSNIA / EMTTREQ / QCYHRLPLS [En_HC], the assay gave 51 nM (6 of 6 replicates).

The variant KISQMYRYEQQNNSSIA / EANTREQ / QSYHRLPLS [En_HC] showed 230 nM (6 of 6 replicates). With KLRQLQHIESFNKNNVA / EMTTRES / QSYDRLPLS [En_HC] the result was 8.1 nM (6 of 6 replicates). The variant KISMTYRYESQNKNSIA / EMSRREN / QQYHRLPLS [En_HC] gave 630 nM (1 of 6 replicates). For KISQMTRVGMTHSNSIA / EEVTRAK / QQYHRLPLA [En_Gen], the assay gave 20 nM (5 of 6 replicates). With SISMSMAFLSRNKNSVA / ENSTRES / QQYHRLPLV [En_HC] the result was 41 nM (5 of 6 replicates). The variant KFAIDLEVGIQHLNHVA / EASHTRY / QQYSRLPLT [En_Gibbs] showed 7.1 nM (6 of 6 replicates). With KVDQSVDGQSRNKNAVA / AASTRED / QQYHRLPLS [GP_Gibbs] the result was 740 pM (6 of 6 replicates). The variant KLSVMSSYLSVNKNSVA / EMTTREN / QQYDRLPLS [En_HC] gave 5.6 nM (6 of 6 replicates).

The variant MISQLYNMGSFAINSVA / QASQRNA / QQYDRLPLM [En_Gen] gave 18 nM (6 of 6 replicates). The variant KLTQLTHIESFNKNNVA / EMTTRES / QSYDRLPLS [En_HC] showed 100 nM (6 of 6 replicates). The variant MAYGGDMMESVARNSVA / NAETRAD / QDYHRLPLS [En_HC] gave 1.6 nM (6 of 6 replicates). The variant HFSQVTMYGYWNYNSVA / QTSTREE / QQYDRLPLS [En_HC] gave 800 nM (4 of 6 replicates). With KLRQLTQTEGYFKNSVA / QASTREN / QSYHRLPLS [En_HC] the result was 5.4 nM (6 of 6 replicates). The variant KLSNSQEYESRWKNSVA / NASTREL / QQYHRLPLS [GP_Gibbs] gave 2.3 nM (6 of 6 replicates). The variant MIAESVGYQSRQKNNVA / DNSTRES / QCYDRLPLS [En_HC] showed 640 nM (1 of 6 replicates). For QVQYHPGESLRHTNSIA / DVNIKDM / QQYSRLPLS [En_Gibbs], the assay gave 2.6 nM (6 of 6 replicates).

For KVSQSWLYEDRNWNSVA / QASCRNS / QQYHRLPLS [GP_Gibbs], the assay gave 1.6 nM (6 of 6 replicates). With MLSQMTGLGMKAENSVA / QASMRFN / QQYHRLPLI [En_Gen] the result was 8.2 nM (6 of 6 replicates). The variant IMSDSQERDASRLRNIA / DDTTRAM / QQYARLPLS [En_Gibbs] showed 4.7 nM (6 of 6 replicates). For KCDQWVDYGDRNKNSVA / NASTRES / QQYHRLPLS [GP_Gibbs], the assay gave 56 nM (6 of 6 replicates). For KVSPSVLGWMRNKNSVA / NASTRRS / QQYHRLPLS [GP_Gibbs], the assay gave 10 nM (6 of 6 replicates). With KIYEMTGYESRNADSIA / DNSTRGR / QQYHRLPLS [En_HC] the result was 15 nM (6 of 6 replicates). For KISQMVRVGSTVSNSIA / EEATRSD / QQYHRLPLS [En_Gen], the assay gave 3.8 nM (6 of 6 replicates). The variant MVSQLMLWGLHAKNSIA / HAQMRLN / QQYDRLPLE [En_Gen] showed nd (0 of 6 replicates).

The variant KFEGSMLYESRNGNSVA / QASTRSS / QQYHRLPLS [GP_Gibbs] gave 2.0 nM (6 of 6 replicates).

The closing 6 entries, repeated:

{"CDR-L1": "KCDQWVDYGDRNKNSVA", "CDR-L2": "NASTRES", "CDR-L3": "QQYHRLPLS", "group": "GP_Gibbs", "apparent Kd": "56 nM", "replicates with signal": "6 of 6"}
{"CDR-L1": "KVSPSVLGWMRNKNSVA", "CDR-L2": "NASTRRS", "CDR-L3": "QQYHRLPLS", "group": "GP_Gibbs", "apparent Kd": "10 nM", "replicates with signal": "6 of 6"}
{"CDR-L1": "KIYEMTGYESRNADSIA", "CDR-L2": "DNSTRGR", "CDR-L3": "QQYHRLPLS", "group": "En_HC", "apparent Kd": "15 nM", "replicates with signal": "6 of 6"}
{"CDR-L1": "KISQMVRVGSTVSNSIA", "CDR-L2": "EEATRSD", "CDR-L3": "QQYHRLPLS", "group": "En_Gen", "apparent Kd": "3.8 nM", "replicates with signal": "6 of 6"}
{"CDR-L1": "MVSQLMLWGLHAKNSIA", "CDR-L2": "HAQMRLN", "CDR-L3": "QQYDRLPLE", "group": "En_Gen", "apparent Kd": "nd", "replicates with signal": "0 of 6"}
{"CDR-L1": "KFEGSMLYESRNGNSVA", "CDR-L2": "QASTRSS", "CDR-L3": "QQYHRLPLS", "group": "GP_Gibbs", "apparent Kd": "2.0 nM", "replicates with signal": "6 of 6"}

Of ten entries with the parent sequence, four were seen in most replicates (averages 2.2 nM to 240 nM), three in one and three in none, so single entries are noisy.
Three control strains display no target. For all light chain designs, 4% of the pairings with them gave a signal, with a median of 430 nM and one signal in twenty below 38 nM, so weak values seen in few replicates may be background.
The authors averaged sequences with at least three values out of six and counted those with two or fewer as poor binders.
A sequence measured in both rounds can read differently, since the two assays cover different ranges.